Each compound was assayed on C. albicans (assay: Broth microdilution assay of synergistic lethality with 4 μg/mL FLC (recovery on drug-free YPD)). Settings: not given.

Row | Compound | Synergistic lethal concentrations [µM]
1 | CC(C)C[C@H](NC(=O)[C@H](Cc1ccccc1)NC(=O)c1cnccn1)B(O)O [Bortezomib] | 100
2 | C[C@@H](Oc1cc(-c2cnn(C3CCNCC3)c2)cnc1N)c1c(Cl)ccc(F)c1Cl [Crizotinib] | 100
3 | CCN(CC)CCNC(=O)c1c(C)[nH]c(/C=C2\C(=O)Nc3ccc(F)cc32)c1C [Sunitinib] | 100
4 | (S)-Crizotinib | 100
5 | Bleomycin (hydrochloride) | 3.125
6 | Crizotinib (hydrochloride) | 100
7 | Vinorelbine (ditartrate) | 100

Same assay, conditions: concentration of the compound that is synergistically lethal with 4 μg/mL FLC; C. albicans; recovery on drug-free YPD

Row | Compound | Synergistic lethal concentrations [µM]
8 | CC(C)COc1ccc(CNC(=O)N(Cc2ccc(F)cc2)C2CCN(C)CC2)cc1 [Pimavanserin] | 12.5
9 | Colistin (sulfate) | 12.5

From paper PMC11200976, “Pitavastatin Calcium Confers Fungicidal Properties to Fluconazole by Inhibiting Ubiquinone Biosynthesis and Generating Reactive Oxygen Species” (Antioxidants, 2024)
